Legend:
[1] = Solubility of diols in fully demineralized water; type: physicochemical
[2] = Solubility of mixture A + diols; type: physicochemical; conditions: 10g of substance added to 90g of mixture A

For 1,3-propanediol, the Solubility [1] was “Unlimited” and the “Solubility of mixture A + diols” value [2] was “no clear solution”.
